Reference: patent US20240360179A1, “STAPLED PEPTIDES AND METHODS THEREOF” (FOG PHARMACEUTICALS, INC., priority 2021, published 2024)

Amino acid sequences for entries named in this document (tags omitted).
UniProt P35222, whole entry: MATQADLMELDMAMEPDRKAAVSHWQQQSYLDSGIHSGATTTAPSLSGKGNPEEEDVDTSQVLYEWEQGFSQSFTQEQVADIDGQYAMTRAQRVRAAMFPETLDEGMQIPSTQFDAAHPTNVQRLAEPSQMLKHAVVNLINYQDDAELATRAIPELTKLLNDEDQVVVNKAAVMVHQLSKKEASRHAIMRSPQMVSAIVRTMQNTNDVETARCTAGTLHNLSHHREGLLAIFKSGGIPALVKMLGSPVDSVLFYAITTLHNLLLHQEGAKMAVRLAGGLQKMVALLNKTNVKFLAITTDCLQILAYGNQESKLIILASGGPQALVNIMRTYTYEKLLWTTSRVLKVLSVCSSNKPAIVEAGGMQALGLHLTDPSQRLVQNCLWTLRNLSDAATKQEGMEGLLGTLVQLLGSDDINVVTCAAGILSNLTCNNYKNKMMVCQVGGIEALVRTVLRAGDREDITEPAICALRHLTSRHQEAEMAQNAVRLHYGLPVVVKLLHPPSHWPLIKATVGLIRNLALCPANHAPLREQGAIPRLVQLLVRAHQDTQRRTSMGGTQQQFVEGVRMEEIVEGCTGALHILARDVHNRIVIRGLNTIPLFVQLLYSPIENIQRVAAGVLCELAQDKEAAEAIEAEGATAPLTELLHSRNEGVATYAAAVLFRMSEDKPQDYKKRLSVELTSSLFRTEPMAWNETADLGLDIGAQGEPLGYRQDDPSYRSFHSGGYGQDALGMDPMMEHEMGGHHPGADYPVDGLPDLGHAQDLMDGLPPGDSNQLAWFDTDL

Target: T1, full-length B-Catenin (Uniprot ID P35222) (Homo sapiens, UniProt P35222)
T1 construct: 10 nM full-length B-Catenin (Uniprot ID P35222)
Assay: biochemical
Type: binding
Conditions: beta-Catenin FP IC50 (nM), competition fluorescence polarization

First: CC(=O)N1CCC[C@]12CC=CCCCC1(CCCC=CCCCOC(=O)N3CC[C@@]4(C3)NC(=O)[C@H](CC(=O)NCCCC[C@@H](C(=O)N[C@@H](C)C(N)=O)NC(=O)[C@H](Cc3csc5ccccc35)NC(=O)[C@H](Cc3ccsc3)NC4=O)NC(=O)[C@H](Cc3ccccc3)NC(=O)[C@H](C)NC(=O)[C@H](C)NC(=O)[C@H](Cc3cccc(C(=O)O)c3)NC(=O)[C@H](CC(=O)O)NC1=O)NC(=O)[C@H](CC(C)(C)C)NC(=O)[C@H](CC(=O)O)NC2=O (relative stereo) [I-44, Ac-PL3-Asp-Npg-B5-Asp-3COOHF-Ala-Ala-Phe-AsnR*3-PyrS2-3Thi-BztA-Lys*3-Ala-NH2]
Second: CC(=O)N1CCC[C@]12CC=CCCCC1(CCCC=CCCCOC(=O)N3CC[C@@]4(C3)NC(=O)[C@H](CCCCNC(=O)CC[C@@H](C(=O)N[C@@H](C)C(N)=O)NC(=O)[C@H](Cc3csc5ccccc35)NC(=O)[C@H](Cc3ccsc3)NC4=O)NC(=O)[C@H](Cc3ccccc3)NC(=O)[C@H](C)NC(=O)[C@H](CO)NC(=O)[C@H](Cc3cccc(C(=O)O)c3)NC(=O)[C@H](CCO)NC1=O)NC(=O)[C@H](CC(C)(C)C)NC(=O)[C@H](CC(=O)O)NC2=O (relative stereo) [I-87, Ac-PL3-Asp-Npg-B5-Hse-3COOHF-Ser-Ala-Phe-Lys*3-PyrS2-3Thi-BztA-GlnR*3-Ala-NH2]
The IC50 of the first is higher: 750 to 1000 nM for the first, 200 to 750 nM for the second. The second is the more potent here.

First: CC(=O)N1CCC[C@]12CC=CCCCC1(CCCC=CCCCOC(=O)N3CC[C@@]4(C3)NC(=O)[C@H](CCCCNC(=O)CC[C@@H](C(=O)N[C@@H](C)C(N)=O)NC(=O)[C@H](Cc3csc5ccccc35)NC(=O)[C@H](Cc3ccsc3)NC4=O)NC(=O)[C@H](Cc3ccccc3)NC(=O)[C@H](C)NC(=O)[C@H](CCC(N)=O)NC(=O)[C@H](Cc3cccc(C(=O)O)c3)NC(=O)[C@H](CCO)NC1=O)NC(=O)[C@H](CC(C)(C)C)NC(=O)[C@H](CC(=O)O)NC2=O (relative stereo) [I-91, Ac-PL3-Asp-Npg-B5-Hse-3COOHF-Gln-Ala-Phe-Lys*3-PyrS2-3Thi-BztA-GlnR*3-Ala-NH2]
Second: CCCC[C@@H]1NC(=O)[C@H](Cc2cccc(C(=O)O)c2)NC(=O)[C@H](CC(=O)O)NC(=O)C2(CCCC=CCCCOC(=O)N3CC[C@@]4(C3)NC(=O)[C@H](CCCCNC(=O)CC[C@@H](C(=O)N[C@@H](CC(C)C)C(=O)N[C@@H](CO)C(N)=O)NC(=O)[C@H](Cc3csc5ccccc35)NC(=O)[C@H](Cc3ccccc3C(F)(F)F)NC4=O)NC(=O)[C@H](Cc3ccccc3)NC(=O)[C@H](C)NC1=O)CCCC=CC[C@]1(CCCN1C(C)=O)C(=O)N[C@@H](CCO)C(=O)N[C@@H](CC(C)(C)C)C(=O)N2 (relative stereo) [I-146, Ac-PL3-Hse-Npg-B5-Asp-3COOHF-nLeu-Ala-Phe-Lys*3-PyrS2-2F3MeF-BztA-GlnR*3-Leu-Ser-NH2]
The IC50 of the first is lower: 200 to 750 nM for the first, over 1000 nM for the second. The first is the more potent here.

First: CC(=O)N1CCC[C@]12CC=CCCCC1(CCCC=CCCCOC(=O)N3CC[C@@]4(C3)NC(=O)[C@H](CCCCNC(=O)CC[C@@H](C(=O)N[C@@H](C)C(N)=O)NC(=O)[C@H](Cc3csc5ccccc35)NC(=O)[C@H](Cc3ccccc3C(F)(F)F)NC4=O)NC(=O)[C@H](Cc3ccccc3)NC(=O)[C@H](C)NC(=O)[C@H](C)NC(=O)[C@H](CN(CC(=O)O)CC(F)(F)F)NC(=O)[C@H](CC(N)=O)NC1=O)NC(=O)[C@H](CC(C)(C)C)NC(=O)[C@H](CC(=O)O)NC2=O (relative stereo) [I-117, Ac-PL3-Asp-Npg-B5-Asn-TfeGA-Ala-Ala-Phe-Lys*3-PyrS2-2F3MeF-BztA-GlnR*3-Ala-NH2]
Second: CC(=O)N1CCC[C@]12CC=CCCCC1(CCCC=CCCCOC(=O)N3CC[C@@]4(C3)NC(=O)[C@H](CCCCNC(=O)CC[C@@H](C(=O)N[C@@H](CC(C)C)C(=O)N[C@@H](CO)C(N)=O)NC(=O)[C@H](Cc3csc5ccccc35)NC(=O)[C@H](Cc3ccccc3C(F)(F)F)NC4=O)NC(=O)[C@H](Cc3ccccc3)NC(=O)[C@H](C)NC(=O)[C@H](C)NC(=O)[C@H](Cc3cccc(C(=O)O)c3)NC(=O)[C@H](CC(=O)O)NC1=O)NC(=O)[C@H](CC(C)(C)C)NC(=O)[C@H](CCO)NC2=O (relative stereo) [I-145, Ac-PL3-Hse-Npg-B5-Asp-3COOHF-Ala-Ala-Phe-Lys*3-PyrS2-2F3MeF-BztA-GlnR*3-Leu-Ser-NH2]
The IC50 of the first is lower: 200 to 750 nM for the first, over 1000 nM for the second. The first is the more potent here.

Compared with `CC(=O)N1CCC[C@]12CC=CCCCC1(CCCC=CCCCOC(=O)N3CC[C@@]4(C3)NC(=O)[C@H](CCCCNC(=O)CC[C@@H](C(=O)N[C@@H](CC(C)C)C(=O)N[C@@H](CO)C(N)=O)NC(=O)[C@H](Cc3csc5ccccc35)NC(=O)[C@H](Cc3ccccc3C(F)(F)F)NC4=O)NC(=O)[C@H](Cc3ccccc3)NC(=O)[C@H](C)NC(=O)C(C)(C)NC(=O)[C@H](Cc3cccc(C(=O)O)c3)NC(=O)[C@H](CC(=O)O)NC1=O)NC(=O)[C@H](CC(C)(C)C)NC(=O)[C@H](CCO)NC2=O` (relative stereo) [I-147, Ac-PL3-Hse-Npg-B5-Asp-3COOHF-Aib-Ala-Phe-Lys*3-PyrS2-2F3MeF-BztA-GlnR*3-Leu-Ser-NH2], `CC(=O)N1CCC[C@]12CC=CCCCC1(CCCC=CCCCOC(=O)N3CC[C@@]4(C3)NC(=O)[C@H](CCC(=O)NCCCC[C@@H](C(N)=O)NC(=O)[C@H](Cc3csc5ccccc35)NC(=O)[C@H](Cc3ccccc3)NC4=O)NC(=O)[C@H](Cc3ccccc3)NC(=O)[C@H](C)NC(=O)[C@H](CCO)NC(=O)[C@H](CCC(N)=O)NC(=O)[C@H](CC(=O)O)NC1=O)NC(=O)[C@H](CC1CCCCC1)NC(=O)[C@H](CC(N)=O)NC2=O` (relative stereo) [I-148, Ac-PL3-Asn-Cha-B5-Asp-Gln-Hse-Ala-Phe-GlnR*3-PyrS2-Phe-BztA-Lys*3-NH2] is lower in IC50: 750 to 1000 nM for the first, 200 to 750 nM for the second.

Compared with `CC(=O)N1CCC[C@]12CC=CCCCC1(CCCC=CCCCOC(=O)N3CC[C@@]4(C3)NC(=O)[C@H](CCC(=O)NCCCC[C@@H](C(N)=O)NC(=O)[C@H](Cc3csc5ccccc35)NC(=O)[C@H](Cc3ccccc3)NC4=O)NC(=O)[C@H](Cc3ccccc3)NC(=O)[C@H](C)NC(=O)[C@H](CCCCNC(C)C)NC(=O)[C@H]([C@@H](C)O)NC(=O)[C@H](CC(=O)O)NC1=O)NC(=O)[C@H](CC1CCCCC1)NC(=O)[C@H](CC(N)=O)NC2=O` (relative stereo) [I-150, Ac-PL3-Asn-Cha-B5-Asp-Thr-iPrLys-Ala-Phe-GlnR*3-PyrS2-Phe-BztA-Lys*3-NH2], `CC(=O)N1CCC[C@]12CC=CCCCC1(CCCC=CCCCOC(=O)N3CC[C@@]4(C3)NC(=O)[C@H](CCC(=O)NCCCC[C@@H](C(N)=O)NC(=O)[C@H](Cc3csc5ccccc35)NC(=O)[C@H](Cc3ccsc3)NC4=O)NC(=O)[C@H](Cc3ccccc3)NC(=O)[C@H](C)NC(=O)[C@H](CCCCNC(C)C)NC(=O)[C@H](CCC(N)=O)NC(=O)[C@H](CC(=O)O)NC1=O)NC(=O)[C@H](CC1CCCCC1)NC(=O)[C@H](CC(N)=O)NC2=O` (relative stereo) [I-152, Ac-PL3-Asn-Cha-B5-Asp-Gln-iPrLys-Ala-Phe-GlnR*3-PyrS2-3Thi-BztA-Lys*3-NH2] is lower in IC50: over 1000 nM for the first, 750 to 1000 nM for the second.

`CC(=O)N1CCC[C@]12CCCCCCC1(CCCCCCCCOC(=O)N3CC[C@@]4(C3)NC(=O)[C@H](CCC(=O)NCCCC[C@@H](C(N)=O)NC(=O)[C@H](Cc3csc5ccccc35)NC(=O)[C@H](Cc3ccccc3)NC4=O)NC(=O)[C@H](Cc3ccccc3)NC(=O)[C@H](C)NC(=O)[C@H](CCO)NC(=O)[C@H](CCC(N)=O)NC(=O)[C@H](CC(=O)O)NC1=O)NC(=O)[C@H](CC1CCCCC1)NC(=O)[C@H](CC(N)=O)NC2=O` (relative stereo) [I-153, Ac-PL3-Asn-Cha-B5-Asp-Gln-Hse-Ala-Phe-GlnR*3-PyrS2-Phe-BztA-Lys*3-NH2] and `CC(=O)N1CCC[C@]12CCCCCCC1(CCCCCCCCOC(=O)N3CC[C@@]4(C3)NC(=O)[C@H](CCC(=O)NCCCC[C@@H](C(N)=O)NC(=O)[C@H](Cc3csc5ccccc35)NC(=O)[C@H](Cc3ccsc3)NC4=O)NC(=O)[C@H](Cc3ccccc3)NC(=O)[C@H](C)NC(=O)[C@H](CCO)NC(=O)[C@H](CCC(N)=O)NC(=O)[C@H](CC(=O)O)NC1=O)NC(=O)[C@H](CC1CCCCC1)NC(=O)[C@H](CC(N)=O)NC2=O` (relative stereo) [I-157, Ac-PL3-Asn-Cha-B5-Asp-Gln-Hse-Ala-Phe-GlnR*3-PyrS2-3Thi-BztA-Lys*3-NH2] cannot be ordered by IC50: over 1000 nM for the first, over 1000 nM for the second.

`CC(=O)N1CCC[C@]12CCCCCCC1(CCCCCCCCOC(=O)N3CC[C@@]4(C3)NC(=O)[C@H](CCC(=O)NCCCC[C@@H](C(N)=O)NC(=O)[C@H](Cc3csc5ccccc35)NC(=O)[C@H](Cc3ccccc3)NC4=O)NC(=O)[C@H](Cc3ccccc3)NC(=O)[C@H](C)NC(=O)[C@H](CCCCNC(C)C)NC(=O)[C@H](CCC(N)=O)NC(=O)[C@H](CC(=O)O)NC1=O)NC(=O)[C@H](CC1CCCCC1)NC(=O)[C@H](CC(N)=O)NC2=O` (relative stereo) [I-154, Ac-PL3-Asn-Cha-B5-Asp-Gln-iPrLys-Ala-Phe-GlnR*3-PyrS2-Phe-BztA-Lys*3-NH2] and `CC(=O)N1CCC[C@]12CCCCCCC1(CCCCCCCCOC(=O)N3CC[C@@]4(C3)NC(=O)[C@H](CCC(=O)NCCCC[C@@H](C(N)=O)NC(=O)[C@H](Cc3csc5ccccc35)NC(=O)[C@H](Cc3ccccc3)NC4=O)NC(=O)[C@H](Cc3ccccc3)NC(=O)[C@H](C)NC(=O)[C@H](CCCCNC(C)C)NC(=O)[C@H]([C@@H](C)O)NC(=O)[C@H](CC(=O)O)NC1=O)NC(=O)[C@H](CC1CCCCC1)NC(=O)[C@H](CC(N)=O)NC2=O` (relative stereo) [I-156, Ac-PL3-Asn-Cha-B5-Asp-Thr-iPrLys-Ala-Phe-GlnR*3-PyrS2-Phe-BztA-Lys*3-NH2] cannot be ordered by IC50: over 1000 nM for the first, over 1000 nM for the second.

`CC(=O)N1CCC[C@]12CCCCCCC1(CCCCCCCCOC(=O)N3CC[C@@]4(C3)NC(=O)[C@H](CCC(=O)NCCCC[C@@H](C(N)=O)NC(=O)[C@H](Cc3csc5ccccc35)NC(=O)[C@H](Cc3ccccc3)NC4=O)NC(=O)[C@H](Cc3ccccc3)NC(=O)[C@H](C)NC(=O)[C@H](CCO)NC(=O)[C@H]([C@@H](C)O)NC(=O)[C@H](CC(=O)O)NC1=O)NC(=O)[C@H](CC1CCCCC1)NC(=O)[C@H](CC(N)=O)NC2=O` (relative stereo) [I-155, Ac-PL3-Asn-Cha-B5-Asp-Thr-Hse-Ala-Phe-GlnR*3-PyrS2-Phe-BztA-Lys*3-NH2] showed an IC50 of over 1000 nM.
